Measured values reported in article PMC6017588, “Synthesis and Structure-Activity Relationships of LP1 Derivatives: N-Methyl-N-phenylethylamino Analogues as Novel MOR Agonists” (Molecules : A Journal of Synthetic Chemistry and Natural …, 2018).

By UniProt entry, the sequences of proteins in these tests, tags left out.
UniProt P33535, whole entry: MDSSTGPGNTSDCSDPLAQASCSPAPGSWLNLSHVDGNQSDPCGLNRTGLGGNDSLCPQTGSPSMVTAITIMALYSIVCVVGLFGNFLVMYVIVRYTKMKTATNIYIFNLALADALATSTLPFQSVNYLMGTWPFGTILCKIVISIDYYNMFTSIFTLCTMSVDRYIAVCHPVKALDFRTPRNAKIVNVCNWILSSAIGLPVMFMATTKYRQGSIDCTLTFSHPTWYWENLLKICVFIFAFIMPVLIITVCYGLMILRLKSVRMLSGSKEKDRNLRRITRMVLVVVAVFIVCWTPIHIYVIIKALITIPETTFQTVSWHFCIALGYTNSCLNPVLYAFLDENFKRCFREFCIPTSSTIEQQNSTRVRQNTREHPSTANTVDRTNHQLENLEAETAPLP

Molecular target: MOR (Rattus norvegicus, UniProt P33535)
Test: MOR competitive radioligand binding ([3H]-DAMGO displacement, rat brain membranes)
Parameters: from tissue; host or cells: rat brain membranes
Details: read-out: Ki (nM) ± SEM MOR

**Q.** How did the Ki turn out when `C[C@@H](NC(=O)[C@@H](N)Cc1ccc(O)cc1)C(=O)NCC(=O)N(C)[C@@H](Cc1ccccc1)C(=O)NCCO` [DAMGO, reference compound] was run?
**A.** 1.16 ± 0.1 nM
